Earlier results as cited in paper PMC5718165.

By UniProt entry, the sequences of proteins in these tests, tags left out. Residues count along the entry.
UniProt Q27987, 22-763: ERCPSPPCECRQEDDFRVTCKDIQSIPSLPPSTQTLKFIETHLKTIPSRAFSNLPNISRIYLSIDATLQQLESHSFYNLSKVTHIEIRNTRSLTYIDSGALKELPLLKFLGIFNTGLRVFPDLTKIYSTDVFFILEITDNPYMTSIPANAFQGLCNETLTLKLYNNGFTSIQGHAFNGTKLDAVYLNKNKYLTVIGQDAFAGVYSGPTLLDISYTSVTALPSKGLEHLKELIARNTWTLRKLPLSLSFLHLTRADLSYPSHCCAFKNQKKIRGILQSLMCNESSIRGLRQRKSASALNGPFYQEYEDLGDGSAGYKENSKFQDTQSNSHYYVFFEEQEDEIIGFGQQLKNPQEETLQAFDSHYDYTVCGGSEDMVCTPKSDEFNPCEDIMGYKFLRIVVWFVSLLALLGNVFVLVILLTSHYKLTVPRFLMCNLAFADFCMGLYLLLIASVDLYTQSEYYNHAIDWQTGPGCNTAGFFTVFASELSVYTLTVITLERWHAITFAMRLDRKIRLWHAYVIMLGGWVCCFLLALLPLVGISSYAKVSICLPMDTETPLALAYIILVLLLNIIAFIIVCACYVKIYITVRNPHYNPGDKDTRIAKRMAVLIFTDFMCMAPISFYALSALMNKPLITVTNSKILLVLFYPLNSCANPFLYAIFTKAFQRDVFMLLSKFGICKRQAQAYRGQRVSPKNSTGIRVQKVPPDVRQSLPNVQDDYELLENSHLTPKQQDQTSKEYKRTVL

Molecular target: TSHR (Bos taurus) (UniProt Q27987)

Kd: 50 nM
Substance: TSH (from UniProt P01217)
